Like-named read-outs stand apart in the source and are kept apart here.
Assays:
[1] = Protocol: (§1) A Compound of the Disclosure is incubated at 1 μM, 10 μM and 100 μM with pooled liver S9 fractions from human (mixed gender) and mouse (CD1) at 1.5 mg/mL in 300 μL buffer containing phosphate 100 mM, MgCl2 2 mM, pH 7.4 at 37° C. for 0, 10, 20, 40, 60 min.
(§2) Enzyme kinetic data for uptake and metabolism of a Compound of the Disclosure is analysed by fitting the Michaelis-Menten equation to the data. V0=Vmax[S]/Km+[S], where V0 is initial velocity, [S] is substrate concentration, Vmax is maximum velocity and Km is substrate concentration at half Vmax. All fitting is performed using GraphPad Prism 8.4 software (GraphPad Software Inc). No weighting scheme is applied.

[2] = remark: listed apart in the source
Protocol: as §1, §2

deuterated N-acetyl-DL-leucine
Km [1]: 216 µM | Vmax, metabolism [1]: 6.8 µmol/min/mg | Km [2]: 69 µM | Vmax, metabolism [2]: 2.6 µmol/min/mg

From patent US20240208895A1, “BRANCHED-CHAIN AMINO ACID DERIVATIVES TO TREAT DISEASE” (INTRABIO LTD., priority 2021, published 2024)
